This is an account of results in US6573282B1 (priority 1995, dated 2003).

Structures can show the parent of a compound that is named as a salt.

One data set relates to inflamed knee joint. The following applies: rat, in vivo.
A further data set deals with FCA-induced hyperalgesia. The following applies: i. pl.

Regarding D-ala^2D-leu^5-enkephalin [DADL], in the data set on inflamed knee joint, the “blockade of the hyperalgesia produced by inflammation of the knee” value is “failure” and the “compression evoked increase in BP” value is given as “effectively blocked”.
With [D-Pen^2, D-Pen^5]enkephalin [DPDPE], in the data set on inflamed knee joint, the “blockade of the hyperalgesia produced by inflammation of the knee” value is reported as “failure” and the “compression evoked increase in BP” value is “effectively blocked”.
For `CN(C)C(=O)C(CCN1CCC(O)(c2ccc(Cl)cc2)CC1)(c1ccccc1)c1ccccc1` [loperamide, 4-(p-chlorophenyl)-4-hydroxy-N-N-dimethyl-α,α-diphenyl-1-piperidinebutyramide hydrochloride], in the data set on inflamed knee joint, the “cuff-evoked increase in BP” value is “dose dependent blockage”, the “effect upon resting blood pressure” value is “no effect” and the “reversal of IA effect by pretreatment with naloxone” value is “reversed”.
On to `CN1CC[C@]23c4c5ccc(O)c4O[C@H]2[C@@H](O)C=C[C@H]3[C@H]1C5.O=S(=O)(O)O` [morphine, morphine sulfate], for which, in the data set on inflamed knee joint, the “compression evoked increase in BP” value is “effectively blocked”, the “cuff-evoked increase in BP” value is listed as “dose dependent blockage”, the “effect upon resting blood pressure” value was “no effect” and the “reversal of IA effect by pretreatment with naloxone” value is on record as “similarly reversed”.
As to `CN(C)C(=O)C(CCN1CCC(O)(c2ccc(Cl)cc2)CC1)(c1ccccc1)c1ccccc1` [Ioperamide], in the data set with FCA-induced hyperalgesia, the “FCA-Induced Inflammation % Increase Over Baseline” value is 108% and the “FCA-Induced Inflammation ED50” value was 21 μg i. pl.
